# Source: publication PMC9369162, “Substrates of the Human Brain Proton-Organic Cation Antiporter and Comparison with Organic Cation Transporter 1 Activities” (International Journal of Molecular Sciences, 2022)
# Where “and” joins values, the source holds several entries; their conditions need not be identical. Identical values can stand only once. Like-named read-outs stand apart in the source and are kept apart here.
# Key:
# [1] = tested on: H + OC antiporter; test: Trans-stimulation (antiport) with diphenhydramine as probe substrate in hCMEC/D3 cells; format: cell-based, human; details: for good substrate of both H + OC antiporter and OCT1: diphenhydramine as probe substrate, compared with OCT1 ratio
# [2] = tested on: H + OC antiporter; test: Trans-stimulation (antiport) with MDAI as probe substrate in hCMEC/D3 cells; format: cell-based, human
# [3] = tested on: H + OC antiporter; test: Cis-inhibition of substrate uptake into hCMEC/D3 cells by diphenhydramine, imipramine or memantine
# [4] = tested on: H + OC antiporter; test: Proton gradient dependency of uptake (FCCP) in hCMEC/D3 cells; format: cell-based, human; details: FCCP 25 µM, 2 min
# [5] = tested on: H + OC antiporter; test: Concentration-dependent uptake into hCMEC/D3 cells (transport kinetics)
# [6] = tested on: H + OC antiporter; test: Combined criteria for H + OC antiporter substrates (trans-stimulation, inhibition, FCCP, saturable uptake) in hCMEC/D3 cells; format: cell-based, human; details: all criteria
# [7] = hCMEC/D3, inhibitor diphenhydramine 250 µM, substrate 3 µM, 2 min
# [8] = hCMEC/D3, inhibitor memantine 250 µM, substrate 3 µM, 2 min
# [9] = hCMEC/D3, intracellular diphenhydramine after 2 min incubation with substrate over without substrate
# [10] = hCMEC/D3, intracellular MDAI after 2 min incubation with substrate over without substrate
Compound,"Cis DPH, mean ratio of intracellular substrate concentration with inhibitor over without inhibitor [3]","Cis Imip, mean ratio of intracellular substrate concentration with inhibitor over without inhibitor [3]","Cis Mema, mean ratio of intracellular substrate concentration with inhibitor over without inhibitor [3]",other results
N[C@@H]1C[C@H]1c1ccccc1 (racemic) [Tranylcypromine],,,,DPH Antiport Ratio [1]: 0.30; MDAI Antiport Ratio [2]: 0.11
CN(C)CCC=C1c2ccccc2CCc2ccccc21 [Amitriptyline],,,,"Cis DPH, mean ratio of intracellular substrate concentration with inhibitor over without inhibitor [3, 7]: 0.66; Cis Mema, mean ratio of intracellular substrate concentration with inhibitor over without inhibitor [3, 8]: 0.7"
C[N+](C)(C)CCO [Choline],,,,"DPH Antiport Ratio [1, 9]: 1.04; MDAI Antiport Ratio [2, 10]: 1.27"
CN(C)CCCC1(c2ccc(F)cc2)OCc2cc(C#N)ccc21 (centres unmarked) [Citalopram],0.27,0.13,0.3,
CC(C)(C)NCC(O)c1cc(Cl)c(N)c(Cl)c1 (centres unmarked) [Clenbuterol],0.33,0.37,0.5,
CN(C)CC(c1ccc(O)cc1)C1(O)CCCCC1 (centres unmarked) [Desmethylvenlafaxine],0.82,0.67,1,good substrate of both H + OC antiporter and OCT1 [1]: good substrates of both the H + OC antiporter and OCT1
CC(CCc1ccc(O)cc1)NCCc1ccc(O)c(O)c1 (centres unmarked) [Dobutamine],,,,good substrate of both H + OC antiporter and OCT1 [1]: good substrates of both the H + OC antiporter and OCT1
CN(C)CCC=C1c2ccccc2COc2ccccc21 [Doxepin],,,,"Cis DPH, mean ratio of intracellular substrate concentration with inhibitor over without inhibitor [3, 7]: 0.33; Cis Mema, mean ratio of intracellular substrate concentration with inhibitor over without inhibitor [3, 8]: 0.4"
CNCC[C@H](Oc1cccc2ccccc12)c1cccs1 [Duloxetine],0.78,0.01,0.8,"DPH Antiport Ratio [1]: 0.10; Trans DPH, mean ratio of DPH remaining within the cells with substrate over control without substrate [1]: 0.1; MDAI Antiport Ratio [2]: 0.10; Trans MDAI, mean ratio of MDAI remaining within the cells with substrate over control without substrate [2]: 0.1; FCCP, mean ratio of intracellular substrate concentration with FCCP co-incubation over without FCCP [4]: 1; Km [5]: < 30 µM and 27.7 µM; Vmax [5]: 3167 pmol × mg Protein^−1 × min^−1; intrinsic clearance ([5]; hCMEC/D3): above 100 mL/min/g protein"
CN[C@@H](C)[C@H](O)c1ccccc1 [Ephedrine],0.46,0.34,0.6,
CN(C)CCC[C@@]1(c2ccc(F)cc2)OCc2cc(C#N)ccc21 [Escitalopram],0.32,0.15,0.4,
CC12CC3CC(C)(C1)CC(N)(C3)C2 [Memantine],0.23,0.2,,
CCC1(c2cccc(O)c2)CCCCN(C)C1 (centres unmarked) [Meptazinol],0.29,0.18,0.3,good substrate of both H + OC antiporter and OCT1 [1]: good substrates of both the H + OC antiporter and OCT1
COC(=O)C(c1ccccc1)C1CCCCN1 (centres unmarked) [Methylphenidate],0.6,0.55,0.6,
CCN(CC)CCNC(=O)c1cc(Cl)c(N)cc1OC [Metoclopramide],0.29,0.21,0.4,
COCCc1ccc(OCC(O)CNC(C)C)cc1 (centres unmarked) [Metoprolol],,,,classification as H + OC antiporter substrate [6]: we did not classify metoprolol as an H + OC antiporter substrate
CCN(CC)C(=O)C1(c2ccccc2)CC1CN (centres unmarked) [Milnacipran],,,,good substrate of both H + OC antiporter and OCT1 [1]: good substrates of both the H + OC antiporter and OCT1
CNCC1CCCCC1(O)c1cccc(OC)c1 (centres unmarked) [N-Desmethyltramadol],0.31,0.48,0.5,
CNCCC=C1c2ccccc2CCc2ccccc21 [Nortriptyline],,,,"Km ([5]; hCMEC/D3, 2 min uptake, 0.1–1000 µM, after subtraction of linear passive-diffusion component): 38.1 µM; Vmax ([5]; hCMEC/D3, 2 min uptake, after subtraction of linear passive-diffusion component): 3205 pmol × mg Protein^−1 × min^−1"
COc1ccc2c3c1O[C@H]1C(=O)CC[C@@]4(O)[C@@H](C2)N(C)CC[C@]314 [Oxycodone],0.31,0.23,0.29,
NC(=O)c1cnccn1 [Pyrazinamide],,,,"Cis DPH, mean ratio of intracellular substrate concentration with inhibitor over without inhibitor [3, 7]: 1.41"
Cc1ncc(C[n+]2csc(CCO)c2C)c(N)n1 [Thiamine],,,,"DPH Antiport Ratio [1, 9]: 0.84; MDAI Antiport Ratio [2, 10]: 1.60"
COc1cc(Cc2cnc(N)nc2N)cc(OC)c1OC [Trimethoprim],,,,"DPH Antiport Ratio [1, 9]: 0.60; MDAI Antiport Ratio [2, 10]: 0.85"
COc1ccccc1N1CCN(CCCNc2cc(=O)n(C)c(=O)n2C)CC1 [Urapidil],,,,"Cis DPH, mean ratio of intracellular substrate concentration with inhibitor over without inhibitor [3, 7]: 0.52; Cis Mema, mean ratio of intracellular substrate concentration with inhibitor over without inhibitor [3, 8]: 0.4"
